# Values of other authors in patent publication US6841561B1, “Dihydroorotate dehydrogenase inhibitors for the treatment of viral-mediated diseases” (priority 1999, dated 2005).
# Tests used:
# [1] = 1.5×10^6 IU injected subcutaneously into the back of a rabbit of about 2 kg, cited from earlier work
# Hep2 cells = conditions: cited from earlier work
# [2] = system: human hepatoblastoma cell line (HepG2); conditions: actinomycin D omitted; cited from earlier work
substance,measurement,setting,value
human interferon β,interferon detectable in the serum after 1 hour,[1]; 1 hour,≥ 128 IU/ml
same,interferon detectable in the serum after 5 hours,[1]; 5 hours,≥ 64 IU/ml
same,effectiveness relative to betaseron in protecting cells against a viral challenge,Hep2 cells,about 2.2 times
same,antiviral activity relative to natural interferon β from primary diploid human fibroblast cells,[2],about 1.5 times
